Only a part is listed here, and it is no random draw. Activity calls are given as the source filed them. Rule as the data show it: active = inhibition above about 50%; inactive = the rest.

This assay is described as follows: lowers stimulated NF-kB reporter luminescence – cell-based, uHTS, TCR NF-kB activation inhibitor project, primary screen (AID 435003). As to conditions: Jurkat, PMA/ionomycin-induced NF-kB luciferase reporter, at 4 µM, stronger effect = higher value. A general note: A reporter such as luciferase makes a cellular process visible.
As usually defined, the inhibition is the relative decrease from the control value, in per cent. For `O=[As](O)(c1ccccc1Br)c1ccccc1Br`, the inhibition was inactive: -1.37%.

The values above are taken from PubChem BioAssay AID435003 (Sanford-Burnham Center for Chemical Genomics, 2010).
